Each structure is given as a SMILES string.

The chains behind the UniProt entries cited, without tags or fusion partners.
UniProt P31403, whole entry, stated change not applied: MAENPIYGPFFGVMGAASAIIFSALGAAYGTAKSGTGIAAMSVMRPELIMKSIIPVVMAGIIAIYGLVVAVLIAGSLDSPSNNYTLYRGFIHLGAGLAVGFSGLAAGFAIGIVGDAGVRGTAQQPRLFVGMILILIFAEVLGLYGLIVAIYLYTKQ

Ki data for one compound are collected here from paper PMC4047407 (The Journal of Biological Chemistry, 2014).

The assay deals with T1, V-ATPase from S. cerevisiae BMA64-1B deleted for the VMA3 gene but expressing the M. sexta c subunit (Manduca sexta, UniProt P31403).
T1 construct: expressed in transfected cells; host or cells: Saccharomyces cerevisiae BMA64-1B deleted for VMA3; vacuolar membranes
The assay is described as follows: V-ATPase assay on yeast vacuolar membranes, strain expressing the M. sexta c subunit. In kind it is biochemical, Saccharomyces cerevisiae / Manduca sexta subunit c. On the procedure: V-ATPase assays based on the detection of released phosphate using the M. sexta V-ATPase or yeast vacuolar membranes were carried out as reported previously ([23], [28], [29]).
FIGURE 5. Inhibition of yeast V-ATPase activity. V-ATPase activity from the wild type S. cerevisiae strain BMA64-1B (WT) and BMA64-1B deleted for the VMA3 gene but expressing the M. sexta c subunit was measured in the presence of bafilomycin A1 (open circles) and PA1b (filled circles). For comparison, inhibition of the purified V1Vo holoenzyme of M. sexta (squares) by PA1b is included.

Usually Ki stands for the equilibrium dissociation constant of an inhibitor or competing ligand from its target. The low end stands for higher affinity, the high end for lower affinity. `CO/C1=C\C(C)=C\[C@@H](C)[C@@H](O)[C@@H](C)C/C(C)=C/C=C/[C@H](OC)[C@@H]([C@@H](C)[C@@H](O)[C@H](C)[C@@]2(O)C[C@@H](O)[C@H](C)[C@@H](C(C)C)O2)OC1=O` [bafilomycin, bafilomycin A1] registered a Ki of around 2.4 nM.
